Assay results reported in published antibiotic growth screens (doi:10.1038/s41589-023-01349-8).
The other results are listed elsewhere or left out.

tested on: A. baumannii ATCC 17978; test: relative growth (fraction of control); higher = less inhibition; conditions: 50 µM

SMILES	relative growth
COCC(=O)N1C[C@H](C)[C@H](OC)CN(C)C(=O)c2cc(NC(=O)c3cc(C)on3)ccc2OC[C@H]1C	0.965
CC(=O)N[C@@H](CS)C(=O)O	0.988
C=CCOC(=O)[C@@H]1[C@H]2C(=O)O[C@H](c3ccccc3)[C@H](c3ccccc3)N2[C@H](c2ccc(OCCOC(=O)[C@H]3C[C@H]4C(=O)NCC(=O)N4[C@H]3c3cccc(OCCO)c3)cc2)[C@@]12C(=O)Nc1ccc(I)cc12	1.13
NCc1ccccc1Sc1ccccc1CO	0.816
O=C(C[C@@H]1CC[C@@H]2[C@H](COC[C@@H](O)CN2C(=O)c2ccncc2)O1)NC1CCC1	0.901
Cc1cc(NN)nc(SCC(=O)NN)n1	1.02
c1ccc(-c2ccnc(-c3cc(-c4ccccc4)ccn3)c2)cc1	1.1
COc1cccc(NC(=S)NN)c1	0.933
CN[C@H]1C[C@@H](N)[C@H](O)[C@@H](O[C@@H]2O[C@H](CO)[C@@H]3OC4(O[C@@H]3[C@@H]2O)O[C@H](C(N)CO)[C@H](O)[C@H](O)[C@H]4O)[C@@H]1O (some centres undefined)	0.918
CCCCN(CCCC)CCCOC(=O)c1ccc(N)cc1.O=S(=O)(O)O	0.86
COc1ccc(S(=O)(=O)N(C)C[C@@H]2Oc3ncc(Br)cc3C(=O)N([C@H](C)CO)C[C@@H]2C)cc1	1.11
COc1cccc(-c2cc(=O)c3cc(OC)ccc3o2)c1	0.934
COc1cccc(C#Cc2ccc3c(c2)O[C@H](CN(C)S(=O)(=O)c2ccccc2F)[C@@H](C)CN([C@@H](C)CO)S3(=O)=O)c1	1.21
Cc1cn[nH]c1.Cl	1.08
C/N=C1\S[C@@H](CC(=O)NC(C)C)C(=O)N1C	0.971
COc1ccc(S(=O)(=O)N[C@H]2CC[C@@H](CCNC(=O)CN3CCOCC3)O[C@@H]2CO)cc1	0.936
CCNC(=O)C[C@@H]1CC[C@@H](NC(=O)C2CC2)[C@@H](CO)O1	1.05
C=CCN1C(=O)[C@]2(O[C@@H](CCOC(=O)NCCCCCC(=O)NO)[C@H]([Si](C)(C)c3ccc(OC)cc3)[C@H]2C)c2cc(I)ccc21	0.949
CN(C)C(=O)C[C@H]1C=C[C@H](NC(=O)C2CCOCC2)[C@H](CO)O1	1.05
Cl.NCC(=O)CCC(=O)O	0.965
Cc1nnc(SCC2=C(C(=O)[O-])N3C(=O)[C@@H](NC(=O)Cn4cnnn4)[C@H]3SC2)s1.[Na+]	1.21

SMILES	relative growth
O=c1cc(-c2ccccc2)oc2cc(O)c(O)c(O)c12	0.974
CC(C)CCCC(C)N (centres undefined)	1
C[C@H](NC(=O)C[C@@H]1CC[C@H](NC(=O)CN2CCOCC2)[C@H](CO)O1)c1ccccc1	1.01
Cc1cccc(NC(=O)C(=O)NCCCO)c1	0.985
O=C1CCC(=O)N1c1nccs1	0.968
O=C(C[C@@H]1CC[C@H](NS(=O)(=O)c2ccccc2F)[C@H](CO)O1)NCCCN1CCOCC1	0.967
NC(=O)NCC#Cc1ccc2c(c1)[C@]1(C(=O)N2)[C@H](C(=O)N2CCCCCCC2)[C@H]2C(=O)O[C@H](c3ccccc3)[C@H](c3ccccc3)N2[C@@H]1c1ccccc1OCCO	0.919
O=C(CCCCCCC(=O)Nc1ccccc1)NO	0.889
CS(=O)(=O)Nc1ccc2c(c1)C(=O)NC2=O	1.13
C[C@@H]1CN([C@H](C)CO)S(=O)(=O)c2ccc(C#Cc3cccnc3)cc2O[C@@H]1CN(C)CC1CCOCC1	1.06
COCCOC(=O)N1C(=O)[C@@]2(c3cc(C#CC4(O)CCCCCC4)ccc31)[C@H](c1ccc(OCCO)cc1)N1[C@H](c3ccccc3)[C@H](c3ccccc3)OC(=O)[C@H]1[C@@H]2C(=O)N1CCN(c2ncccn2)CC1	1.09
O=C(CS)NCCCCCNC(=O)[C@@H]1C[C@@H]2C(=O)N[C@@H](Cc3ccccc3)C(=O)N2[C@@H]1c1ccc(O)cc1	0.952
COc1ccccc1N1CCN(CCCNc2cc(=O)n(C)c(=O)n2C)CC1.Cl	1.1
O[C@H]1[C@H](O)[C@@H](O)C(c2ccc(Cl)c(Cc3ccc(OC4CCOC4)cc3)c2)O[C@@H]1O (some centres undefined)	1.01
O=C(NC1CCCCC1)[C@@H]1C(c2ccc(Cl)cc2)=C(S(=O)(=O)c2ccccc2)C(=O)N1Cc1ccc(-c2ccccc2)cc1	1.01
O=S(=O)(NCC[C@@H]1CC[C@@H](NS(=O)(=O)c2cccc(Cl)c2)[C@@H](CO)O1)c1cccc(F)c1	0.816
COc1ccc(S(=O)(=O)Nc2ccc3c(c2)[C@@H]2C[C@@H](CC(=O)NCC4CC4)O[C@@H](CO)[C@@H]2O3)cc1	0.957
O=C(C[C@H]1CC[C@H]2[C@@H](COC[C@H](O)CN2Cc2cc(F)ccc2F)O1)N[C@H]1CCN(Cc2ccccc2)C1	1.05
C[C@H](CO)N1C[C@H](C)[C@H](CN(C)S(C)(=O)=O)Oc2cc(C#CCN(C)C)ccc2S1(=O)=O	0.898
NNC(=O)CS(=O)(=O)c1ccc(Cl)cc1	0.998
O=C(CN1CCOCC1)NCC[C@@H]1CC[C@@H](NS(=O)(=O)c2ccc(Cl)cc2)[C@H](CO)O1	1.25

SMILES	relative growth
CCS(=O)(=O)NCC[C@@H]1CC[C@@H](NS(=O)(=O)c2cccc(F)c2)[C@@H](CO)O1	0.846
Cn1cnc(S(=O)(=O)N[C@H]2CC[C@H](CC(=O)Nc3ccccc3)O[C@@H]2CO)c1	1.04
OCC(O)CO	1.06
CN(C)C(=O)C[n+]1ccc(/C=N/O)cc1	1.02
C[C@@H]1CN([C@H](C)CO)S(=O)(=O)c2ccc(C#CC3(O)CCCC3)cc2O[C@@H]1CN(C)C(=O)Cc1cccnc1	0.985
O=C1COC[C@@H](c2ccccc2)N1	0.99
Cc1cccc(N(CC(=O)O)CC(=O)O)c1	1.03
O=C(C[C@@H]1C=C[C@@H](NC(=O)c2cnccn2)[C@H](CO)O1)NCc1ccccc1F	1.07
CCN(CC)CCOc1ccc2c(c1)C(=O)c1cc(OCCN(CC)CC)ccc1-2	1.05
CC[C@H](/C=C/C(C)C1CCC2C3CCC4=CC(=O)CC[C@]4(C)C3CC[C@]12C)C(C)C (some centres undefined)	0.926
C[C@@H]1CN([C@H](C)CO)S(=O)(=O)c2ccc(-c3cncnc3)cc2O[C@H]1CN(C)C(=O)NC1CCCC1	1.11
CC(=O)O[C@@]1(C)C[C@@H](O)[C@@H]2C=CO[C@@H](O[C@@H]3O[C@H](CO)[C@@H](O)[C@H](O)[C@H]3O)[C@@H]21	1.17
C[C@H]1CN([C@@H](C)CO)C(=O)CCCn2nncc2CO[C@@H]1CN(C)S(=O)(=O)c1ccc(-n2cccn2)cc1	0.954
COc1ccc(NC(=O)N(C)C[C@@H]2Oc3ncc(C#C[C@@H](C)O)cc3C(=O)N([C@H](C)CO)C[C@@H]2C)cc1	0.948
C=C[C@@]1(C)CC(=O)[C@]2(O)[C@@]3(C)[C@@H](O)CCC(C)(C)[C@@H]3[C@H](O)[C@H](OC(C)=O)[C@@]2(C)O1	0.891
O=C(C[C@H]1CC[C@H]2[C@@H](COC[C@H](O)CN2S(=O)(=O)c2cccc(Cl)c2)O1)NCCCN1CCOCC1	0.901
COc1cccc(S(=O)(=O)N2C[C@H](O)COC[C@@H]3O[C@@H](CC(=O)NCCCN4CCOCC4)CC[C@H]32)c1	0.975
CCN(CC)C(=S)SSC(=S)N(CC)CC	0.332
C/C(=C(\CCOP(=O)(O)O)SC(=O)c1ccccc1)N(C=O)Cc1cnc(C)nc1N	0.984
CC(C)C[C@@H]1NC(=O)[C@H]2C[C@@H](C(=O)NCCCCCCNC(=O)CS)[C@@H](c3ccc(O)cc3)N2C1=O	1.03
NCC[C@H]1CC[C@@H](NC(=O)c2ccccc2F)[C@H](CO)O1	1.07

SMILES	relative growth
COc1ccc(-c2coc3cc(O)ccc3c2=O)c(OC)c1OC	0.987
CCOC(=O)[C@H](CCc1ccccc1)N[C@@H](C)C(=O)N(CC(=O)O)C1Cc2ccccc2C1.Cl	0.922
Nc1c2c(nc3ccccc13)CCCC2	0.791
CN1CC(O)C2=C/C(=N/NC(N)=O)C(=O)C=C21 (centres undefined)	0.995
CC(O)C(=O)O.CCOc1ccc2nc3cc(N)ccc3c(N)c2c1	0.924
CNC[C@H](O)[C@@H](O)[C@H](O)[C@H](O)CO.Cc1c(Nc2ncccc2C(=O)O)cccc1C(F)(F)F	0.873
O=c1cc(-c2ccccc2)oc2cc(O)cc(O)c12	1.02
Cn1c(=O)c2c(ncn2CCCN)n(C)c1=O	0.928
COc1ccccc1S(=O)(=O)N[C@H]1CC[C@@H](CCNC(=O)C2CC2)O[C@@H]1CO	1.11
C=CCOC(=O)[C@@H]1[C@H]2C(=O)O[C@H](c3ccccc3)[C@H](c3ccccc3)N2[C@H](c2ccc(OCCOC(=O)[C@H]3C[C@H]4C(=O)N[C@@H](CCCC[N+](C)(C)C)C(=O)N4[C@H]3c3cccc(OCCO)c3)cc2)[C@@]12C(=O)Nc1ccc(I)cc12	1.09
CC(C)(C)C(=O)C(Oc1ccc(Cl)cc1)n1ccnc1 (centres undefined)	1.04
O=C(C[C@@H]1C=C[C@@H](NS(=O)(=O)c2ccc(F)cc2)[C@@H](CO)O1)N1CCC(Cc2ccccc2)CC1	0.929
O=C(C[C@@H]1CC[C@H]2[C@@H](COC[C@@H](O)CN2S(=O)(=O)c2ccc(Cl)cc2)O1)N[C@H]1CCN(Cc2ccccc2)C1	0.954
Clc1ccc2sc(Sc3ccccc3)nc2c1	0.984
Cc1c(C)n2c3c(=O)n(C)c(=O)n(C)c3nc2n1CCO	1.01
O=C(O)c1cccc(C(=O)O)n1	1.02
CC(C)=CCC/C(C)=C/CC/C(C)=C/CO [trans,trans-FARNESOL]	0.587
Nc1nc(NC2CC2)c2ncn(C3C=C[C@@H](CO)C3)c2n1.O=S(=O)(O)O (some centres undefined)	1.08
C[C@@H]1CC[C@H]2[C@@H](C)C(O)O[C@@H]3O[C@]4(C)CC[C@@H]1[C@]32OO4 (some centres undefined)	0.878
O=C1CN(/N=C/c2ccc([N+](=O)[O-])o2)C(=O)N1	0.964
COc1cccc(S(=O)(=O)Nc2ccc3c(c2)OC[C@H](C)N(C(=O)Cc2cccnc2)C[C@H](C)[C@H](OC)CN(C)C3=O)c1	1.02
